# US11419921B2, “Methods of treating neurological disorders” (EnClear Therapies, Inc., priority 2018, dated 2022)
# Test system: iCell® motor neurons
# Assay: Toxicity of (GR)10, untreated or protease-treated, on iCell motor neurons
# Format: cell-based
# Description: 200 μM of (GR)10 were diluted in human cerebrospinal fluid (CSF) and 400 μL were applied to each immobilized proteases. The reaction was incubated 5 minutes at room temperature with end-to-end mixing. Columns were spun down 1 minute at 1,000 Xg to recover digested GR dipeptides. Columns were washed with 12 resin volumes of PBS. The procedure was repeated with 60 minutes digestion time. 100 μL of each samples were transferred to a clean tube, flash-frozen and subsequently used for LC/MS quantification of GR repeats of different lengths. The remaining 300 μL of each samples were flash-frozen and used to assess neuron toxicity.
# 300 μL of CSF were applied to each immobilized proteases and incubated 60 minutes at room temperature with end-to-end mixing. Columns were spun down 1 minute at 1,000 Xg to recover treated CSF. Samples were flash-frozen and subsequently used to test neuron toxicity.
# This example describes the reduced toxicity of (GR)10 on in vitro neuronal cells by digestion of (GR)10 with proteases.
compound,measurement,setting,value
"N=C(N)NCCC[C@H](NC(=O)CNC(=O)[C@H](CCCNC(=N)N)NC(=O)CNC(=O)[C@H](CCCNC(=N)N)NC(=O)CNC(=O)[C@H](CCCNC(=N)N)NC(=O)CNC(=O)[C@H](CCCNC(=N)N)NC(=O)CNC(=O)[C@H](CCCNC(=N)N)NC(=O)CNC(=O)[C@H](CCCNC(=N)N)NC(=O)CNC(=O)[C@H](CCCNC(=N)N)NC(=O)CNC(=O)[C@H](CCCNC(=N)N)NC(=O)CNC(=O)[C@H](CCCNC(=N)N)NC(=O)CN)C(=O)O [(GR)10, reference compound]",EC50,,~50 µM
same,Toxicity when (GR)10 dissolved in DMSO instead of water,iCell motor neurons,further enhanced
